Source: ChEMBL document CHEMBL3808321, “LAT-1 activity of meta-substituted phenylalanine and tyrosine analogs” (Bioorg Med Chem Lett, 2016)

Chains of the proteins cited; added tags and fusions are not shown. Lines headed by an entry give the natural chain unless they say otherwise; changes in a name come on top.
UniProt Q01650: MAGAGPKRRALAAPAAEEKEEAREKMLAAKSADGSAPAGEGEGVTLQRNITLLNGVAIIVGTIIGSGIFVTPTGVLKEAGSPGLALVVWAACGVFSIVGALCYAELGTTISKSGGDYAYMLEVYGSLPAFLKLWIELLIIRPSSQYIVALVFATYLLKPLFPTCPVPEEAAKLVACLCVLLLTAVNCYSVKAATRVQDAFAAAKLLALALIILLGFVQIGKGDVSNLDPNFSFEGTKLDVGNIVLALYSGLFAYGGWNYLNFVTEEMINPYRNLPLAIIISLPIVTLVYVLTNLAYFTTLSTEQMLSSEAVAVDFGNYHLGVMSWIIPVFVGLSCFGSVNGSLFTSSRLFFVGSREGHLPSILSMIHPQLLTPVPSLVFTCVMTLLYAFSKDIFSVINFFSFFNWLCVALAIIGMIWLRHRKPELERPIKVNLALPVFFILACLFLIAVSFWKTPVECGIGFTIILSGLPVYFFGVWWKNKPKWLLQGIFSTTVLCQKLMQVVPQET

Legend:
[1] = target: T1, Large neutral amino acids transporter small subunit 1 (Homo sapiens, UniProt Q01650); assay: Substrate activity at human LAT1 expressed in HEK cells assessed as efflux rate of [3H]-gabapentin at 200 uM after 5 to 180 secs by scintillation counting based trans-stimulation assay; assay type: cell-based; settings: HEK293
In short: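 HEK-hLAT1 cells were preloaded with [3H]-gabapentin, then incubated with test agent at 200 μM. Efflux rate (fmol/min) was compared with efflux in the agent's absence and with L-leucine and L-arginine as positive and negative controls and L-phenylalanine and L-tyrosine as parent amino acids. Mean of at least three experiments.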

[2] = target: T1, Large neutral amino acids transporter small subunit 1; assay: Inhibition of human LAT1 expressed in HEK cells assessed as reduction in uptake of [3H]-gabapentin at 200 uM after 3 mins by scintillation counting based cis-inhibition assay; assay type: cell-based; settings: HEK293
In short: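 HEK cells stably transfected with human LAT-1 cDNA. Test agent at 200 μM competed with [3H]-gabapentin for cellular uptake. Results are % inhibition relative to background signal without inhibitor, with mean of at least three experiments.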

| Activity [1] [fmol/min] | inhibition [2] [%] | Compound |
| --- | --- | --- |
| 2.7 | 98 | Cc1ccccc1C[C@H](N)C(=O)O |
| 3.8 | 73 | Cc1cccc(C[C@H](N)C(=O)O)c1 |
